Literature values, collected in PMC5976250 (The Biochemical journal, 2017).

Protein sequences, listed by entry. Tags and fused reporters are not part of them. Lines headed by an entry give the natural chain unless they say otherwise; changes in a name come on top.
UniProt P48165: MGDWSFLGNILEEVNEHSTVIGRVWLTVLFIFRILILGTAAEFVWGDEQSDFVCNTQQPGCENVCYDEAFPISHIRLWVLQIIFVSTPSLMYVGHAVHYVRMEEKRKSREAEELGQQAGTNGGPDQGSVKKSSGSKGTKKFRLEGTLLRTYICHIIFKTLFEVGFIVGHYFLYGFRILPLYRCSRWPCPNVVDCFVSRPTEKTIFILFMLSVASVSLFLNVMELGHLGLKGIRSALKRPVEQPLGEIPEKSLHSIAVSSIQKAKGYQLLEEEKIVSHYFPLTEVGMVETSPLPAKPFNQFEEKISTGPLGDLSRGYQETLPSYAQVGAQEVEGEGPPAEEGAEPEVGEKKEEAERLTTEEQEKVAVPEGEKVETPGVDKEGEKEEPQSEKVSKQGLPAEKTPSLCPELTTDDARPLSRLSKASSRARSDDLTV

Biological target: CaM
Conditions: read-out: Kd for CaM, α-family connexin peptides; presence of Ca2+; ref [2]; cited from earlier work

Substance	Kd
Cx44p132–153: α-family connexin Cx44 peptide	0.049 ± 0.003 µM
Cx50p141–166: α-family connexin Cx50 peptide (FRLEGTLLRTYICHIIFKTLFEVGFI; UniProt P48165 141-166, looked up, fragment)	0.0049 ± 0.0006 µM
